# Literature values in patent US7226990B2, “Extendin derivatives” (Novo Nordisk A/S, priority 1998, dated 2007).
# Settings: in humans; reference (19)
substance,measurement,value
glucagon-like peptide-1 [GLP-1],plasma half-life,2 min
